The values below come from patent US20090099157A1, “TETRAHYDRO-PYRAZOLO-PYRIDINE THIOETHER MODULATORS OF CATHEPSIN S” (priority 2007, published 2009).

Protein sequences, listed by entry. Tags and fused reporters are not part of them. Residues count along the entry.
UniProt P25774, 115-331: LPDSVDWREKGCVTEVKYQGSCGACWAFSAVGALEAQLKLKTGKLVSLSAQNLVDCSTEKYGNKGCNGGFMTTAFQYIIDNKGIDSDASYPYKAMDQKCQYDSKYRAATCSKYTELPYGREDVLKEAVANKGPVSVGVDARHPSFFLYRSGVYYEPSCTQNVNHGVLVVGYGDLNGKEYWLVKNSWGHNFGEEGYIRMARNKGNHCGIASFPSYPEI

The target of this experiment is Recombinant human cathepsin S (CatS) (Homo sapiens, UniProt P25774). Kind of experiment: biochemical.

For orientation: IC50 means the concentration that inhibits the measured activity by half. Turning to `CC(=O)NC1CCN(CCSc2cc(-c3nn(C[C@@H](O)CN4CCCCC4)c4c3CN(S(C)(=O)=O)CC4)ccc2C(F)(F)F)CC1` [Example 220, N-[1-(2-{[5-{1-[(2S)-2-Hydroxy-3-piperidin-1-ylpropyl]-5-(methylsulfonyl)-4,5,6,7-tetrahydro-1H-pyrazolo[4,3-c]pyridin-3-yl}-2-(trifluoromethyl)phenyl]sulfanyl}ethyl)piperidin-4-yl]acetamide], the IC50 was greater than 20 µM.
Take `O=C(CSc1cc(-c2nn(CC(O)CN3CCC(c4ccccn4)CC3)c3c2CN(C(=O)CO)CC3)ccc1C(F)(F)F)N1CCOCC1` (stereo not drawn) [Example 274, 1-[5-(Hydroxyacetyl)-3-{3-[(2-morpholin-4-yl-2-oxoethyl)sulfanyl]-4-(trifluoromethyl)phenyl}-4,5,6,7-tetrahydro-1H-pyrazolo[4,3-c]pyridin-1-yl]-3-(4-pyridin-2-ylpiperidin-1-yl)propan-2-ol]: the IC50 came to 0.01 µM.
The figure for `CS(=O)(=O)N1CCc2c(c(-c3ccc(C(F)(F)F)c(SCCN4CCC(CO)CC4)c3)nn2CCCN2CCC(N3CCCC3=O)CC2)C1` [Example 21, 1-{1-[3-(3-{3-[2-(4-Hydroxymethyl-piperidin-1-yl)-ethylsulfanyl]-4-trifluoromethyl-phenyl}-5-methanesulfonyl-4,5,6,7-tetrahydro-pyrazolo[4,3-c]pyridin-1-yl)-propyl]-piperidin-4-yl}-pyrrolidin-2-one] is 0.29 µM.
On to `CS(=O)(=O)N1CCc2c(c(-c3ccc(C(F)(F)F)c(SCC(=O)N4CC[C@@H](O)C4)c3)nn2CC(O)CN2CCC(c3ccc(C#N)cc3)CC2)C1` (stereo partly drawn) [Example 822, 4-[1-(2-Hydroxy-3-{3-[3-({2-[(3R)-3-hydroxypyrrolidin-1-yl]-2-oxoethyl}sulfanyl)-4-(trifluoromethyl)phenyl]-5-(methylsulfonyl)-4,5,6,7-tetrahydro-1H-pyrazolo[4,3-c]pyridin-1-yl}propyl)piperidin-4-yl]benzonitrile], for which the IC50 came to 0.01 µM.
For the compound `OC(CN1CCCCC1)Cn1nc(-c2ccc(C(F)(F)F)c(SCCN3CCOCC3)c2)c2c1CCNC2` (stereo not drawn) [Example 291, 1-(3-{3-[(2-Morpholin-4-ylethyl)sulfanyl]-4-(trifluoromethyl)phenyl}-4,5,6,7-tetrahydro-1H-pyrazolo[4,3-c]pyridin-1-yl)-3-piperidin-1-ylpropan-2-ol], the IC50 was greater than 20 µM.
For the compound `CS(=O)(=O)NCCSc1cc(-c2nn(CC(O)CN3CCC(c4ccccn4)CC3)c3c2CN(S(C)(=O)=O)CC3)ccc1C(F)(F)F` (stereo not drawn) [Example 690, N-(2-{[5-{1-[2-Hydroxy-3-(4-pyridin-2-ylpiperidin-1-yl)propyl]-5-(methylsulfonyl)-4,5,6,7-tetrahydro-1H-pyrazolo[4,3-c]pyridin-3-yl}-2-(trifluoromethyl)phenyl]sulfanyl}ethyl)methanesulfonamide], the IC50 worked out at 0.01 µM.
With `CS(=O)(=O)N1CCc2c(c(-c3ccc(C(F)(F)F)c(SCCN4CCC(F)CC4)c3)nn2C[C@@H](O)CN2CCCC(F)C2)C1` (stereo partly drawn) [Example 500, (2S)-1-(3-Fluoropiperidin-1-yl)-3-{3-[3-{[2-(4-fluoropiperidin-1-yl)ethyl]sulfanyl}-4-(trifluoromethyl)phenyl]-5-(methylsulfonyl)-4,5,6,7-tetrahydro-1H-pyrazolo[4,3-c]pyridin-1-yl}propan-2-ol], the IC50 turned out to be 0.25 µM.
The figure for `O=C1CCCN1C1CCN(C[C@H](O)Cn2nc(-c3ccc(C(F)(F)F)c(SCCN4CCC(F)CC4)c3)c3c2CCNC3)CC1` [Example 429, 1-{1-[(2S)-3-{3-[3-{[2-(4-Fluoropiperidin-1-yl)ethyl]sulfanyl}-4-(trifluoromethyl)phenyl]-4,5,6,7-tetrahydro-1H-pyrazolo[4,3-c]pyridin-1-yl}-2-hydroxypropyl]piperidin-4-yl}pyrrolidin-2-one] is 0.82 µM.
Consider `CC(=O)N1CCN(CC(O)Cn2nc(-c3ccc(C(F)(F)F)c(SCCN4CCCCC4)c3)c3c2CCN(S(C)(=O)=O)C3)CC1` (stereo not drawn) [Example 543, 1-(4-Acetylpiperazin-1-yl)-3-[5-(methylsulfonyl)-3-{3-[(2-piperidin-1-ylethyl)sulfanyl]-4-(trifluoromethyl)phenyl}-4,5,6,7-tetrahydro-1H-pyrazolo[4,3-c]pyridin-1-yl]propan-2-ol], for which the IC50 is 0.34 µM.
Take `CC1CCCN(C(=O)CSc2cc(-c3nn(CCCN4CCC(N5CCCC5=O)CC4)c4c3CN(S(C)(=O)=O)CC4)ccc2C(F)(F)F)C1` (stereo not drawn) [Example 79, 1-{1-[3-(5-Methanesulfonyl-3-{3-[2-(3-methyl-piperidin-1-yl)-2-oxo-ethylsulfanyl]-4-trifluoromethyl-phenyl}-4,5,6,7-tetrahydro-pyrazolo[4,3-c]pyridin-1-yl)-propyl]-piperidin-4-yl}-pyrrolidin-2-one]: the IC50 came to 0.18 µM.
For `CS(=O)(=O)N1CCc2c(c(-c3ccc(C(F)(F)F)c(SCCNS(=O)(=O)C(F)(F)F)c3)nn2CC(O)CN2CCC(N3CCCC3=O)CC2)C1` (stereo not drawn) [Example 867, 1,1,1-Trifluoro-N-[2-({5-[1-{2-hydroxy-3-[4-(2-oxopyrrolidin-1-yl)piperidin-1-yl]propyl}-5-(methylsulfonyl)-4,5,6,7-tetrahydro-1H-pyrazolo[4,3-c]pyridin-3-yl]-2-(trifluoromethyl)phenyl}sulfanyl)ethyl]methanesulfonamide], the half-inhibitory concentration (IC50) came out at 0.045 µM.
Consider `CS(=O)(=O)N1CCc2c(c(-c3ccc(C(F)(F)F)c(SCCO)c3)nn2CCCN2CCC(N3CCCC3=O)CC2)C1` [Example 1, 1-[1-(3-{3-[3-(2-Hydroxy-ethylsulfanyl)-4-trifluoromethyl-phenyl]-5-methanesulfonyl-4,5,6,7-tetrahydro-pyrazolo[4,3-c]pyridin-1-yl}-propyl)-piperidin-4-yl]-pyrrolidin-2-one], for which the IC50 was 0.2 µM.
Then `NC(=O)C(=O)N1CCc2c(c(-c3ccc(C(F)(F)F)c(SCCN4CCCC4)c3)nn2C[C@@H](O)CN2CCCCC2)C1` [Example 317, 2-(1-[(2S)-2-Hydroxy-3-piperidin-1-ylpropyl]-3-{3-[(2-pyrrolidin-1-ylethyl)sulfanyl]-4-(trifluoromethyl)phenyl}-1,4,6,7-tetrahydro-5H-pyrazolo[4,3-c]pyridin-5-yl)-2-oxoacetamide], with 0.16 µM; and `CS(=O)(=O)N1CCc2c(c(-c3ccc(C(F)(F)F)c(SCCN4CCOCC4)c3)nn2CC(O)CN2CCC(F)(F)CC2)C1` (stereo not drawn) [Example 517, 1-(4,4-Difluoropiperidin-1-yl)-3-[5-(methylsulfonyl)-3-{3-[(2-morpholin-4-ylethyl)sulfanyl]-4-(trifluoromethyl)phenyl}-4,5,6,7-tetrahydro-1H-pyrazolo[4,3-c]pyridin-1-yl]propan-2-ol], with 0.54 µM; and `CS(=O)(=O)N1CCc2c(c(-c3ccc(C(F)(F)F)c(SCC(=O)N4CCOCC4)c3)nn2CC(O)CN2CCC(c3ccccn3)CC2)C1` (stereo not drawn) [Example 261, 1-[5-(Methylsulfonyl)-3-{3-[(2-morpholin-4-yl-2-oxoethyl)sulfanyl]-4-(trifluoromethyl)phenyl}-4,5,6,7-tetrahydro-1H-pyrazolo[4,3-c]pyridin-1-yl]-3-(4-pyridin-2-ylpiperidin-1-yl)propan-2-ol], with 0.01 µM.
Then `CS(=O)(=O)NC1CCN(CC(O)Cn2nc(-c3ccc(C(F)(F)F)c(SCC(=O)N4CCOCC4)c3)c3c2CCN(C(=O)CO)C3)CC1` (stereo not drawn) [Example 694, N-(1-{2-Hydroxy-3-[5-(hydroxyacetyl)-3-{3-[(2-morpholin-4-yl-2-oxoethyl)sulfanyl]-4-(trifluoromethyl)phenyl}-4,5,6,7-tetrahydro-1H-pyrazolo[4,3-c]pyridin-1-yl]propyl}piperidin-4-yl)methanesulfonamide], with 0.085 µM; and `CS(=O)(=O)N1CCc2c(c(-c3ccc(C(F)(F)F)c(SCCN4CCC(C(F)(F)F)CC4)c3)nn2CCCN2CCC(N3CCCC3=O)CC2)C1` [Example 40, 1-{1-[3-(5-Methanesulfonyl-3-{4-trifluoromethyl-3-[2-(4-trifluoromethyl-piperidin-1-yl)-ethylsulfanyl]-phenyl}-4,5,6,7-tetrahydro-pyrazolo[4,3-c]pyridin-1-yl)-propyl]-piperidin-4-yl}-pyrrolidin-2-one], with 0.32 µM.
Take `CS(=O)(=O)N1CCc2c(c(-c3ccc(C(F)(F)F)c(SCCN4CCOCC4)c3)nn2CC(O)CN2CCC(n3cn[nH]c3=O)CC2)C1` (stereo not drawn) [Example 684, 4-(1-{2-Hydroxy-3-[5-(methylsulfonyl)-3-{3-[(2-morpholin-4-ylethyl)sulfanyl]-4-(trifluoromethyl)phenyl}-4,5,6,7-tetrahydro-1H-pyrazolo[4,3-c]pyridin-1-yl]propyl}piperidin-4-yl)-2,4-dihydro-3H-1,2,4-triazol-3-one]: the IC50 was found to be 0.17 µM.
Regarding `O=C(CO)N1CCc2c(c(-c3ccc(C(F)(F)F)c(SCCN4CCC(F)(F)C4)c3)nn2CC(O)CN2CCC(O)(c3ccccn3)CC2)C1` (stereo not drawn) [Example 730, 1-(3-{3-[3-{[2-(3,3-Difluoropyrrolidin-1-yl)ethyl]sulfanyl}-4-(trifluoromethyl)phenyl]-5-(hydroxyacetyl)-4,5,6,7-tetrahydro-1H-pyrazolo[4,3-c]pyridin-1-yl}-2-hydroxypropyl)-4-pyridin-2-ylpiperidin-4-ol], the IC50 worked out at 0.06 µM.
Take `CS(=O)(=O)N1CCc2c(c(-c3ccc(C(F)(F)F)c(SCCN4CCCC5CCCCC54)c3)nn2CCCN2CCC(N3CCCC3=O)CC2)C1` (stereo not drawn) [Example 12, 1-{1-[3-(5-Methanesulfonyl-3-{3-[2-(octahydro-quinolin-1-yl)-ethylsulfanyl]-4-trifluoromethyl-phenyl}-4,5,6,7-tetrahydro-pyrazolo[4,3-c]pyridin-1-yl)-propyl]-piperidin-4-yl}-pyrrolidin-2-one]: the IC50 is 0.14 µM.
The figure for `CS(=O)(=O)N1CCc2c(c(-c3ccc(C(F)(F)F)c(SCCN4CCCC(F)(F)C4)c3)nn2C[C@@H](O)CN2CCC(NC(=O)CO)CC2)C1` [Example 209, N-{1-[(2S)-3-{3-[3-{[2-(3,3-Difluoropiperidin-1-yl)ethyl]sulfanyl}-4-(trifluoromethyl)phenyl]-5-(methylsulfonyl)-4,5,6,7-tetrahydro-1H-pyrazolo[4,3-c]pyridin-1-yl}-2-hydroxypropyl]piperidin-4-yl}-2-hydroxyacetamide] is 0.02 µM.
